Where “and” joins values, the source holds several entries; their conditions need not be identical. Equal values may be shown once. The list shows a part of the results. Measured potencies and affinities stand elsewhere. Calls of active or inactive are those of the source. Cut-off read from the data, not from the text of the source: active = activation above about 50% (passing the limit was not always enough); inactive = the rest.

The chains behind the UniProt entries cited, without tags or fusion partners. Where a name states a change or a piece, a line headed by the entry shows the natural chain unless it says otherwise.
UniProt P41145: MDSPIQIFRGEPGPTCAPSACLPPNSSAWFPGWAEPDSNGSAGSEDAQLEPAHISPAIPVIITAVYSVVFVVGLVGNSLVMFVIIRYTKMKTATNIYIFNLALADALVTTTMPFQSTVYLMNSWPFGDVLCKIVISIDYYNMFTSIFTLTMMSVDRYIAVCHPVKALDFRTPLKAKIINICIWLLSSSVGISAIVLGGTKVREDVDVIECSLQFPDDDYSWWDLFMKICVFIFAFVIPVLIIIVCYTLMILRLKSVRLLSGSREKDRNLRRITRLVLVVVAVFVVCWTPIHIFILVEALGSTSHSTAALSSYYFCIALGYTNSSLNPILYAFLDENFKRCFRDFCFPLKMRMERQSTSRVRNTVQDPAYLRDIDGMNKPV

The target of this test is Kappa-type opioid receptor (Homo sapiens) (UniProt P41145). The experiment in a line: kappa opioid receptor activators – cell-based, luminescence, uHTS, primary screen (AID 1777). The note with it: KOR beta-arrestin recruitment, at 10 µM, hits give high values.
With `CC(C)NC(=O)NP(=O)(Oc1ccccc1)Oc1ccccc1`, the activation was inactive: -0.1%.

Take `O=C(CCNC(=O)N1CCn2c1nc1ccccc12)NCc1ccc(F)cc1`: the activation was inactive: -5.5%.

Turning to `O=C(Cn1c(C(F)(F)F)nc2ccccc21)N1CCCC1`, the activation is inactive: -0.1%.

With `Cc1ccc(Cn2nnnc2CN2CCC(n3nnc4cc(C)ccc43)CC2)cc1`, the activation is inactive: 7.4%.

For the compound `CC1CCN(C(=O)Cn2cnc3c2c(=O)n(C)c(=O)n3C)c2ccccc2S1` (stereo not given), the activation is inactive: -1.5%.

As to `Cn1c(=O)c2c(nc(CN3CCC(Cc4ccccc4)CC3)n2CCN2CCOCC2)n(C)c1=O`, the activation is inactive: 2.3%.

For the compound `Cc1cccc(CSc2nc3ccncc3n2CC(=O)Nc2cc(C)cc(C)c2)c1`, the activation was inactive: 2.7%.

In the case of `C[C@H](NC(=O)N1CCn2c1nc1ccccc12)C(=O)NC1CC1`, the activation was inactive: 3.2%.

Consider `CCC(=O)Nc1cccc(C(=O)/C=C/c2ccc(F)cc2)c1`, for which the activation was inactive: -6.7%.

As to `Cc1ccc(NC(=O)Cn2cnc3c(=O)n(C)c(=O)n(C)c32)c(C)c1`, the activation was inactive: -2.1%.

Take `N=c1n(CCCOc2ccc(Br)cc2)c2ccccc2n1CC(N)=O`: the activation is inactive: 3.6%.

Consider `COc1ccc(NC(=O)Cn2c(NCC(C)O)nc3ccccc32)cc1Cl` (stereo not given), for which the activation was inactive: 5%.

Consider `O=C(Cn1c2[n+](c3ccc(C(F)(F)F)cc31)CCCCC2)Nc1ccc(Br)cc1`, for which the activation was inactive: -1.1%.

Regarding `CC(O)c1nc2ccccc2n1CC(=O)Nc1ccc(F)cc1Cl` (stereo not given), the activation was inactive: 1.7%.

As for `CN1CCC(N(C)c2nc(-c3ccc([N+](=O)[O-])cc3)nc3ccccc23)CC1`, the activation was inactive: 2.6%.

In the case of `C[C@H](NC(=O)N1CCn2c1nc1ccccc12)C(=O)NCc1ccco1`, the activation is inactive: 0.6%.

Take `O=C(Nc1ccc(F)cc1)N1CCn2c(nc3ccccc32)C1`: the activation is inactive: -0.4%.

For the compound `CC(NC(=O)[C@H](C)NC(=O)N1CCn2c1nc1ccccc12)c1ccccc1` (stereo not given in full), the activation is inactive: -4.4%.

For `O=C1Nc2ccccc2C12Nc1ccccc1-c1nc3ccccc3n12` (stereo not given), the activation is inactive: 0.2%.

In the case of `Cc1ccccc1OCC(O)Cn1c(=N)n(CCN2CCOCC2)c2ccccc21` (stereo not given), the activation is inactive: -2.4% and inactive: 1.2%.

Take `Cc1ccccc1NC(=O)Cn1c(=O)n(C)c2ccccc21`: the activation is inactive: 7.1%.

Take `CCN(CC)CCn1c(NCc2ccc3c(c2)OCO3)nc2ccccc21`: the activation was inactive: 5.4%.

In the case of `O=C(NCc1ccccc1)N1CCn2c(nc3ccccc32)C1`, the activation is inactive: -2.1%.

As for `Cn1c(=O)c2c(ncn2CC(=O)N/N=C/C(Br)=C/c2ccccc2)n(C)c1=O`, the activation is inactive: -0.8%.

In the case of `Cc1ccc(S(=O)(=O)Nc2ccc3c(c2)nc2n3CCN(Cc3ccccc3)C2)cc1`, the activation is inactive: -1%.

Take `C[As](=O)(O)c1cccc(C(=O)O)c1`: the activation was inactive: 0.4%.

Turning to `COc1ccc(NC(=O)N2CCn3c2nc2ccccc23)cc1`, the activation was inactive: 1.4%.

As for `O=[As](O)(c1ccc(O)cc1)c1ccccc1O`, the activation is inactive: 3.5%.

`CN1CCN(c2nc3c(c(=O)[nH]c(=O)n3C)n2CC(N)=O)CC1`: the activation was inactive: 11.9%.

With `CSc1nc2ccccc2n1CC(=O)Nc1c(C)cccc1C`, the activation was inactive: -6.2%.

For `Cc1ccc(SCc2nc3ccccc3n2CC(=O)Nc2c(C)cccc2C)cc1`, the activation is inactive: -2%.

Consider `Brc1ccc(CNc2nc3ccccc3n2CCN2CCCCC2)cc1`, for which the activation is inactive: 5.2%.

Consider `COc1ccc(/C=N/NC(=O)Cn2c(Cc3ccc(OC)c(OC)c3)nc3ccccc32)cc1`, for which the activation was inactive: 6.4%.

Take `COCCn1c(=O)c2c(nc3n2CCN3c2ccc(C)cc2)n(C)c1=O`: the activation is inactive: -3%.

As for `CC(Cc1ccc(O)cc1)NCC(O)c1cc(O)cc(O)c1` (stereo not given), the activation is inactive: 0.9%.

Take `Cc1ccc(OP(=O)(Nc2ccc([N+](=O)[O-])cn2)Oc2ccc(C)cc2)cc1`: the activation is inactive: 0.8%.

On to `Fc1ccc2c(c1)nnn2C1CCN(Cc2ccccc2)CC1`, for which the activation was inactive: 4.5%.

As to `O=C(Cn1c(C(F)(F)F)nc2ccccc21)N/N=C/c1ccco1`, the activation was inactive: 0.1%.

Consider `CCOC(=O)Cn1c(=O)c2c(nc3n2CCN3Cc2ccccc2)n(C)c1=O`, for which the activation is inactive: 2.4%.

For `CN(C)CCn1cnc2c1c(=O)n(C)c(=O)n2C`, the activation was inactive: 0.3%.

For the compound `Cc1ccc2nc3c(c(C)c2c1)CC(C(Cl)Cl)S3` (stereo not given), the activation was inactive: 1%.

`COc1ccc(CCNC(=O)[C@H](CCSC)NC(=O)N2CCn3c2nc2ccccc23)cc1OC`: the activation is inactive: -0.5%.

With `COc1cc(NC(=O)[C@@H](NC(=O)N2CCn3c2nc2ccccc23)C(C)C)cc(OC)c1`, the activation is inactive: 5.9%.

With `Nc1nonc1-c1nc2ccccc2n1CC(=O)N1CCN(c2ccc(F)cc2)CC1`, the activation was inactive: 0.2%.

In the case of `CN(c1ccccc1)S(=O)(=O)c1cccc(NC(=O)Cn2cnc3c2c(=O)n(C)c(=O)n3C)c1`, the activation was inactive: -5.8%.

Turning to `CN(C)CCn1c(=N)n(CC(O)c2ccc(Cl)c(Cl)c2)c2ccccc21` (stereo not given), the activation was inactive: 1.3%.

For `Cc1cccc(CSc2nc3ccncc3n2CC(=O)Nc2ccc(C)c(C)c2)c1`, the activation was inactive: 1%.

Consider `Cc1ccc2oc(-c3cccc(NC(=O)Cn4cnc5c(=O)n(C)c(=O)n(C)c54)c3)nc2c1`, for which the activation is inactive: 0.3%.

Regarding `Cc1cc2ncn(C3CC(=O)N(Cc4ccccc4)C3=O)c2cc1C` (stereo not given), the activation was inactive: -4.8%.

On to `c1ccc2c(c1)nc1n2CCN1CCNC1CCCCC1`, for which the activation was inactive: -0.7%.

`Cn1c(=O)c2ncn(CC(=O)Nc3cccc(-c4nc5ccccc5s4)c3)c2n(C)c1=O`: the activation was inactive: 2.3%.

In the case of `COc1ccc(N/C(=N/P(=O)(N2CCOCC2)N2CCOCC2)N2CCOCC2)cc1`, the activation is inactive: -1.9%.

For `CN(C)C(=O)Cn1c(SCC(=O)NCc2ccc3c(c2)OCO3)nc2ccccc21`, the activation is inactive: -4.6%.

For `CC(C)(C)NC(=O)Cn1c(SCC(=O)NC2CC2)nc2ccccc21`, the activation is inactive: -2%.

Consider `Cc1ccc(Cn2nnnc2CN2CCC(n3nnc4cc(C(F)(F)F)ccc43)CC2)cc1`, for which the activation was inactive: -4.4%.

On to `Nc1nonc1-c1nc2ccccc2n1CC(=O)NC1CCCC1`, for which the activation was inactive: 2.2%.

In the case of `O=C(O)CCc1nn2c3ccccc3n(CCN3CCCCC3)c2nc1=O`, the activation was inactive: -6.6%.

Turning to `Cc1cnc(NC(=O)Cn2cnc3c2c(=O)n(C)c(=O)n3C)s1`, the activation was inactive: 3.4%.

Consider `CCN(CC)c1ccc(CNc2nc3ccccc3n2CCN2CCOCC2)cc1`, for which the activation was inactive: -4.6%.

Take `Cc1ccc(S(=O)(=O)Nc2ccc(Cl)cc2)cc1NC(=O)Cn1cnc2c1c(=O)n(C)c(=O)n2C`: the activation is inactive: 1%.

For the compound `CC(C)NC(=O)CSc1nc2ccccc2n1CC(=O)N(C(C)C)C(C)C`, the activation was inactive: -3.5%.

Regarding `Cc1ccc2c(c1)C1CN(C)CCC1N2C(=O)c1ccco1` (stereo not given), the activation was inactive: -4%.

As to `NC(=O)CC(NC(=O)c1cccc(Br)c1)c1ccc(NC2CCN(Cc3ccccc3)CC2)c([N+](=O)[O-])c1` (stereo not given), the activation was inactive: 0.7%.

With `N=c1n(CCN2CCCCC2)c2ccccc2n1CC(O)c1ccc(Cl)c(Cl)c1` (stereo not given), the activation was inactive: 88.4%.

As for `Cc1c2c(nc3ccccc13)SC(C(Cl)Cl)C2` (stereo not given), the activation was inactive: -0.7%.

With `O=C(CCCCCNC(=O)N1CCn2c1nc1ccccc12)N[C@@H](C(=O)O)c1ccccc1`, the activation is inactive: -0.8%.

Regarding `NC(=O)CS(=O)(=O)c1nc2ccccc2n1CC(=O)N1CCCCC1`, the activation is inactive: 2.3%.

Consider `O=C(Cn1cnc2ccccc21)NC(c1ccccc1)c1ccccc1`, for which the activation is inactive: 6.8%.

Regarding `NC(=O)CC(NC(=O)Cc1ccc(Br)cc1)c1ccc(NC2CCN(Cc3ccccc3)CC2)c([N+](=O)[O-])c1` (stereo not given), the activation was inactive: -4.5%.

Consider `CCn1cc(C(=O)N2CCn3c(nc4ccccc43)C2)c(=O)c2ccc(C)nc21`, for which the activation was inactive: 1.8%.

As for `Cc1cc(=O)[nH]c(N[N+](=O)[O-])n1`, the activation is inactive: -0.9%.

Regarding `Cn1c(=O)c2c(nc(Cl)n2CC(=O)N2CCCCC2)n(C)c1=O`, the activation was inactive: 1.8%.

On to `c1ccc2c(c1)ncn2CCN1CCCCC1`, for which the activation was inactive: -6.9%.

For the compound `Cn1c(=O)c2c(ncn2CC(=O)Nc2nccs2)n(C)c1=O`, the activation was inactive: -2.2%.

For `O=C(OC1CN2CCC1CC2)C12CC3CC(CC(C3)C1)C2` (stereo not given), the activation is inactive: -4.1%.

As to `O=C1C2CCCCC2C(=O)N1c1ccc(NC2CCN(Cc3ccccc3)CC2)c([N+](=O)[O-])c1` (stereo not given), the activation is inactive: 2.4%.

As to `Cc1ccc2c(c1)C1CN(C)CCC1N2C(=S)Nc1ccc(Cl)cc1Cl` (stereo not given), the activation was inactive: -3.4%.

On to `Cn1c(=O)c2c(nc(NCc3ccccc3)n2CC(N)=O)n(C)c1=O`, for which the activation was inactive: 6.7%.

On to `C=CCSc1nnc(NC(=O)Cn2cnc3c2c(=O)n(C)c(=O)n3C)s1`, for which the activation was inactive: -2%.

As to `Cc1cc2ncn(C3CC(=O)N(C)C3=O)c2cc1C` (stereo not given), the activation was inactive: 0%.

On to `COc1ccc(CNC(=O)CCNC(=O)N2CCn3c2nc2ccccc23)cc1`, for which the activation is inactive: 6.8%.

Turning to `CC(O)CNc1nc2ccccc2n1CC(=O)N1CCN(Cc2ccccc2)CC1` (stereo not given), the activation is inactive: 1.5%.

For `COc1cccc(NC(=O)[C@@H](NC(=O)N2CCn3c2nc2ccccc23)C(C)C)c1`, the activation was inactive: 0.1%.

On to `CCCCNc1nc2ccccc2n1CC(=O)Nc1c(C)cccc1CC`, for which the activation was inactive: 2.5%.

Take `COc1cc(I)ccc1[As](=O)(O)O`: the activation was inactive: -0.5%.

On to `c1ccc(CN2CCC(Nc3nc(-c4ccccc4)nc4ccccc34)CC2)cc1`, for which the activation was inactive: 5.3%.

Regarding `Cc1ccc(/C=N/NC(=O)Cn2cnc3ccccc32)o1`, the activation was inactive: -2.9%.

As to `Cn1c(=O)[nH]c(=O)c2c1nc(N1CCCCCC1)n2CCN1CCCCCC1`, the activation was inactive: 6.3%.

For the compound `CC(C)N(C(=O)Cn1c(-c2ccccc2Cl)nc2ccccc21)c1ccccc1`, the activation was inactive: 3.4%.

As for `CCOC(=O)c1cccc(NC(=O)Cn2c(CC(=O)NC)nc3ccccc32)c1`, the activation was inactive: -2.1%.

Consider `C(=N\c1nc2ccccc2n1CCN1CCCCC1)/c1cccs1`, for which the activation was inactive: -1.1%.

For `CSCC[C@H](NC(=O)N1CCn2c1nc1ccccc12)C(=O)NCc1ccccc1`, the activation is inactive: -3.9%.

Consider `Cn1c(=O)[nH]c(=O)c2c1nc(CN1CCN(c3ccc(F)cc3)CC1)n2CCN1CCOCC1`, for which the activation was inactive: 1%.

For the compound `COc1ccc2nc(NP(=O)(c3ccccc3)c3ccccc3)sc2c1`, the activation is inactive: -6.9%.

In the case of `CCCn1c(=O)[nH]c(=O)c2c1nc(-c1ccc3c(c1)OCCO3)n2CCN1CCOCC1`, the activation was inactive: 6.8%.

For the origin of these results see PubChem BioAssay AID1777 (Sanford-Burnham Center for Chemical Genomics, 2009).
